Test results taken from ChEMBL document CHEMBL1122316, “Different receptor sites mediate opioid agonism and antagonism” (J Med Chem, 1983).

Tests used:
[1] = Compound was evaluated for equilibrium constant, Ke; assay type: ADME
[2] = Compound was tested for ability to protect against the irreversible antagonism of morphine''s effects by beta-FNA in guinea pig ileum at 3 nM concentration

## CO[C@]12CC[C@@]3(C[C@@H]1C(C)(C)O)[C@H]1Cc4ccc(O)c5c4[C@@]3(CCN1CC1CC1)[C@H]2O5 [listing 1 of 2 here]
[1]
  Ke: 0.13

## CO[C@]12CC[C@@]3(C[C@@H]1C(C)(C)O)[C@H]1Cc4ccc(O)c5c4[C@@]3(CCN1CC1CC1)[C@H]2O5 [listing 2 of 2 here]
[2]
  Ratio: 1.8

## CN1CC[C@]23c4c5ccc(O)c4O[C@H]2[C@@H](O)C=C[C@H]3[C@H]1C5
[1]
  Ke: 88
